Experiments:
[1] = target: T1, extracellular domain (ECD) of human MPL (Homo sapiens, UniProt P40238); assay: NLuc assay to detect CAR: binding of MPL-ECD-GGSG-NLuc-AcV5 supernatant to CAR-expressing cells
T1 construct: made in house; host or cells: 293FT cells, conditioned medium used unpurified
From the text: (§1) A frequent problem in the field of chimeric antigen receptors is lack of a sensitive and specific assay that can detect cells that express chimeric antigen receptors. To detect the expression of CAR targeting CD19 and MPL, we fused the extracellular domains (ECD) of human CD19 and human MPL, including their signal peptides, in frame with nucleotide sequence encoding a Gly-Gly-Ser-Gly linker, NLuc (without a secretory signal) and an AcV5 epitope tag. In the case of CD19 construct, a FLAG tag was inserted between the signal peptide and the beginning of the extracellular domain. The whole cassette was cloned downstream of the human EF1α promoter into the lentiviral vector pLenti-EF1 to make constructs pLenti-EF1-FLAG-CD19-ECD-GGSG-NLuc-AcV5 and pLenti-EF1-MPL-ECD-GGSG-NLuc-AcV5, respectively. The nucleic acid sequences of the insert fragments are provided in SEQ ID NO: 926 and SEQ ID NO: 925, respectively. The protein sequences of the insert fragments are provided in SEQ ID NO: 2671 and SEQ ID NO: 2670, respectively. The constructs were transfected into 293FT cells by calcium phosphate co-precipitation method. Approximately 20 h post-transfection, the cell culture media was replaced with fresh medium. The conditioned media containing the secreted FLAG-CD19-ECD-GGSG-NLuc-AcV5 (also referred to as CD19-GGSG-NLuc-AcV5) and MPL-ECD-GGSG-NLuc-AcV5 (also referred to as MPL-GGSG-NLuc-AcV5) proteins was collected 48-72 h later.
(§2) Next day morning, approximately 18 hours post-transfection, cells were collected by pipetting up and down in 1.5 ml tubes. The tubes were spun down at 1500 RPM for 5 minutes. Then the cells were washed once with wash buffer (1% FBS in PBS), followed by incubation with 1001 of indicated secretory forms of GGS NLuc supernatants. The cells were incubated at 4° C. for 1 hour.
(§3) After the incubation, cells were washed 5 times with wash buffer (1 ml each wash). Finally the pellet was resuspended in 200 μl wash buffer. Resuspended cells were placed in a 384 well plate in triplicate (25 μl each). Luciferase activity was measured using a BioTek synergy H4 plate reader after addition of NLuc assay buffer (Promega) containing native coelenterazine (25 μl each well) directly to each well (one at a time).
T cells expressing the different MPL CAR constructs were incubated with MPL-GGSG-NLuc-AcV5 and CD19-GGSG-NLuc-AcV5 supernatants and after extensive washes assayed for NLuc activity essentially as described in the preceding example.

HEL cells = assay: ELISA of TNFα in supernatant of CAR-T cells co-cultured with HEL cells; assay type: cell-based, human; settings: co-culture about 96 hours, versus uninfected T cells
[2] = target: extracellular domain (ECD) of human CD19 (Homo sapiens, UniProt P15391); assay: NLuc assay to detect CAR: binding of FLAG-CD19-ECD-GGSG-NLuc-AcV5 supernatant to CAR-expressing cells; settings: puromycin selected
From the text: as §1, §2, §3
Jurkat-NFAT-Luc cells were stably transduced with the different CD19 targeted CAR constructs and selected in puromycin. Cells were incubated with FLAG-CD19-ECD-GGSG-NLuc-AcV5 [SEQ ID NO:2671] supernatant and after extensive washes assayed for NLuc activity essentially as described previously.
Purified T cells were stably transduced with the different CD19-targeted CAR constructs and selected in puromycin. Cells were incubated with FLAG-CD19-ECD-GGSG-NLuc-AcV5 [SEQ ID NO:2671] supernatant and after extensive washes assayed for NLuc activity essentially as described previously.

[3] = test system: RAJI xenograft model of lymphoma; assay: In vivo efficacy of CAR-T cells, RAJI xenograft model of lymphoma in NSG mice (Table 27); set-up: species or system mouse; settings: for median survival: n=5
Protocol: NSG mice (Jackson Lab) were sub-lethally irradiated at a dose of 175 cGy. 24 hours post irradiation (day2), mice were injected with 2.5×10^4 RAJI cells via tail-vein. […] Control mice (n=5) were injected with 1 million T cells expressing the CD8SP-KSHV-4C3-(vL-vH)-Myc-BBz-T2A-PAC(042315-N01)[SEQ ID NO:1643] CAR or given no T cells. […] The median survival of mice given RAJI cells alone and CD8SP-KSHV-4C3-(vL-vH)-Myc-BBz-T2A-PAC(042315-N01)[SEQ ID NO:1643]CAR-T cells were 17 days and 21 days respectively. In contrast, the median survival of mice which received CD8SP-2-CD19MM-(vL-vH)-Myc-BBz-T2A-PAC(062915-D03)[SEQ ID NO:1471] CAR-T cells with and without puromycin selection were 26 and 30 days, respectively. […] CAR-T cells with and without puromycin selection were 30 and 31 days, respectively.
NSG mice (Jackson Lab) were sub-lethally irradiated at a dose of 175 cGy. 24 hours post irradiation (day2), mice were injected with 2.5×10^4 RAJI cells via tail-vein. On day3, the mice (n=3 for each group) were treated with 1 million T cells that had been infected with the CAR encoding lentiviruses.
Human peripheral blood T cells will be isolated using CD3 magnetic beads and infected with lentiviruses expressing the CAR constructs (SEQ ID NO: 11 1614-1B05) targeting CD 19. […] NSG mice (Jackson Lab) will be sub-lethally irradiated at a dose of 175 cGy. 24 hours post irradiation (day2), mice will be injected with 2.5×10^4 RAJI cells via tail-vein. On day 3, the mice (n=5 for each group) will be treated with 5 million T cells that had been infected with the indicated CAR encoding lentiviruses and expanded in the absence or presence of PF-04691502. Control mice (n=5) will be injected with 5 million uninfected T cells. Mice are given human IL2 (400 IU i.p.) on alternate days till the death of all mice in control group.

[4] = stably transduced Jurkat-NFAT-Luc cells

Molecule | binding to MPL-GGSG-NLuc AcV5 (NLuc assay) ([1]; T cells expressing the CAR) | binding to MPL-ECD-GGSG-NLuc-AcV5 (NLuc assay) ([1]; transiently transfected 293FT cells) | secretion of TNFα (HEL cells) | binding to FLAG-CD19-ECD-GGSG-NLuc-AcV5 (NLuc assay) [2, 4] | binding to FLAG-CD19-ECD-GGSG-NLuc-AcV5 (NLuc assay) ([2]; transduced T cells) | median survival ([3]; 1 million T cells expressing control CAR) | median survival ([3]; 1 million T cells, with puromycin selection) | median survival ([3]; 1 million T cells, without puromycin selection) | survival of mice ([3]; versus no T cells or control CAR T cells)
CD8SP-161-(vL-vH)-Myc-CD28z-T2A-PAC(021715-Z07): CAR targeting MPL: 161 scFv with CD28 hinge, transmembrane and cytosolic domains and CD3z (protein, listed as DNA, CAR targeting MPL: 161 scFv with CD28 hinge, transmembrane and cytosolic domains and CD3z) MALPVTALLLPLALLLHAARPDDIQMTQSSSSFSVSLGDRVTITCMASEDIYIRLAWYQQKPGNAPRLLISAATSLETGVPSRFSGSGSGKDYTLSITSLQTEDVGTYYCQQYWSSPWTFGGGTKLEINGGGGSGGGGSGGGGSDVQLQESGPGLVKPSQSLSLTCTVTGYSITSDYTWNWIRQFPGNKLEWMGYITYSGSTSYNPSLKSRNSITRDTSKNQFFLQLNSVTTEDTATYYCARLGRRYTMDYWGQGTSVTVSSTREQKLISEEDLKIEVMYPPPYLDNEKSNGTIIHVKGKHLCPSPLFPGPSKPFWVLVVVGGVLACYSLLVTVAFIIFWVRSKRSRLLHSDYMNMTPRRPGPTRKHYQPYAPPRDFAAYRSRVKFSRSADAPAYQQGQNQLYNELNLGRREEYDVLDKRRGRDPEMGGKPRRKNPQEGLYNELQKDKMAEAYSEIGMKGERRRGKGHDGLYQGLSTATKDTYDALHMQALPPRSSGSGEGRGSLLTCGDVEENPGPHMTEYKPTVRLATRDDVPRAVRTLAAAFADYPATRHTVDPDRHIERVTELQELFLTRVGLDIGKVWVADDGAAVAVWTTPESVEAGAVFAEIGPRMAELSGSRLAAQQQMEGLLAPHRPKEPAWFLATVGVSPDHQGKGLGSAVVLPGVEAAERAGVPAFLETSAPRNLPFYERLGFTVTADVEVPEGPRTWCMTRKPGA | modest binding | strong binding | increased secretion of TNFα | – | – | – | – | – | –
CD8SP-KSHV-4C3-(vL-vH)-Myc-BBz-T2A-PAC(042315-N01): CAR with scFv against KSHV encoded K8.1 protein, used as a negative control (protein, listed as DNA, CAR with scFv against KSHV encoded K8.1 protein, used as a negative control) MALPVTALLLPLALLLHAARPDIVMTQSPSSLTMSVGQKVTMSCKSSHSLLNSRNQKNYLAWFQQKPGQSPKLLVYFASTRESGVPDRFIGSGSGTDFTLTISNVQAEDLADYFCQQHYTTLPTFGGGTKLEIKGGGGSGGGGSGGGGSQIQLVQSGPDLKKPGETVKISCKASGYTFTNTGMNWVKQAPGKGLKWMGWINTYTGEPTYADDFKGRFTFSLETSASTAYLQINNLKNEDTATYFCTRWGYGSSLYYAMDYWGQGTSVTVSSTREQKLISEEDLAKPTTTPAPRPPTPAPTIASQPLSLRPEACRPAAGGAVHTRGLDFACDIYIWAPLAGTCGVLLLSLVITLYCKRGRKKLLYIFKQPFMRPVQTTQEEDGCSCRFPEEEEGGCELRVKFSRSADAPAYQQGQNQLYNELNLGRREEYDVLDKRRGRDPEMGGKPRRKNPQEGLYNELQKDKMAEAYSEIGMKGERRRGKGHDGLYQGLSTATKDTYDALHMQALPPRSSGSGEGRGSLLTCGDVEENPGPHMTEYKPTVRLATRDDVPRAVRTLAAAFADYPATRHTVDPDRHIERVTELQELFLTRVGLDIGKVWVADDGAAVAVWTTPESVEAGAVFAEIGPRMAELSGSRLAAQQQMEGLLAPHRPKEPAWFLATVGVSPDHQGKGLGSAVVLPGVEAAERAGVPAFLETSAPRNLPFYERLGFTVTADVEVPEGPRTWCMTRKPGA | – | – | – | no significant binding | no significant binding | 21 days | – | – | –
CD8SP-CD19Bu12-(vL-vH)-Myc-BBz-T2A-PAC(082815-P08): CD19 CAR with scFv from humanized CD19 antibody huCD19-Bu12, 41BB and CD3z (protein, listed as DNA, CD19 CAR with scFv from humanized CD19 antibody huCD19-Bu12, 41BB and CD3z) MALPVTALLLPLALLLHAARPDEIVLTQSPATLSLSPGERATLSCSASSSVSYMHWYQQKPGQAPRLLIYDTSKLASGIPARFSGSGSGTDFTLTISSLEPEDVAVYYCFQGSVYPFTFGQGTKLEIKRGGGGSGGGGSGGGGSQVQLQESGPGLVKPSQTLSLTCTVSGGSISTSGMGVGWIRQHPGKGLEWIGHIWWDDDKRYNPALKSRVTISVDTSKNQFSLKLSSVTAADTAVYYCARMELWSYYFDYWGQGTLVTVSSTREQKLISEEDLAKPTTTPAPRPPTPAPTIASQPLSLRPEACRPAAGGAVHTRGLDFACDIYIWAPLAGTCGVLLLSLVITLYCKRGRKKLLYIFKQPFMRPVQTTQEEDGCSCRFPEEEEGGCELRVKFSRSADAPAYQQGQNQLYNELNLGRREEYDVLDKRRGRDPEMGGKPRRKNPQEGLYNELQKDKMAEAYSEIGMKGERRRGKGHDGLYQGLSTATKDTYDALHMQALPPRSSGSGEGRGSLLTCGDVEENPGPHMTEYKPTVRLATRDDVPRAVRTLAAAFADYPATRHTVDPDRHIERVTELQELFLTRVGLDIGKVWVADDGAAVAVWTTPESVEAGAVFAEIGPRMAELSGSRLAAQQQMEGLLAPHRPKEPAWFLATVGVSPDHQGKGLGSAVVLPGVEAAERAGVPAFLETSAPRNLPFYERLGFTVTADVEVPEGPRTWCMTRKPGA | – | – | – | strong binding | strong binding | – | 30 days | 31 days | statistically significant improvement in survival
